Values of other authors as cited in article PMC12528161.

Amino acid sequences for entries named in this document (tags omitted). Residues count along the entry.
UniProt P42081, 24-247: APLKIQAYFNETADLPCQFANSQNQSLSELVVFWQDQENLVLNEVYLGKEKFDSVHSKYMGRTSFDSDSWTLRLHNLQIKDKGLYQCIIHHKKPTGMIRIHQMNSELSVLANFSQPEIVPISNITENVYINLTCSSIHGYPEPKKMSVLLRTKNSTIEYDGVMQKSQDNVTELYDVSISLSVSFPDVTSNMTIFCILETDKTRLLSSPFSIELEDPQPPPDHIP

Assays:
CD86 (Homo sapiens) = CD86 (Homo sapiens) (UniProt P42081)
CD80 (Homo sapiens) = CD80 (Homo sapiens) (UniProt P33681)

pKd (CD86 (Homo sapiens)): 5.70 | pKd (CD80 (Homo sapiens)): 6.70
Substance: CTLA-4 (from UniProt P16410)

pKd: −log10 of the molar value.
